Literature values as cited in patent US11364219B2, “Methods and pharmaceutical compositions for treating microbiome dysregulations associated with circadian clock disruption” (INSERM (INSTITUT NATIONAL DE LA SANTÉ ET DE LA RECHERCHE …, priority 2016, dated 2022).

Biological target: Csnk2
Conditions: Csnk2 inhibitors listed as examples; cited from earlier work

CN(C)c1nc2c(Br)c(Br)c(Br)c(Br)c2[nH]1 [K25/DMAT, 2-dimethylamino-4,5,6,7-tetrabromo-1H-benzimidazole]
Ki: 40 nM

O=C1c2ccc(O)c(O)c2C(=O)c2c(O)ccc(O)c21 [quinalizarin, 1,2,5,8-tetrahydroxy-anthraquinone]
Ki: 60 nM
